According to PubChem BioAssay AID1779 (Sanford-Burnham Center for Chemical Genomics, 2009):
This is a selection; strong and weak results do not stand in their true shares. Active and inactive are the calls of the source. No stated cut-off is given here; in the data, active means inhibition above about 50%; inactive means the rest.

Protein sequences, listed by entry. Tags and fused reporters are not part of them.
UniProt Q9Y2R2, whole entry: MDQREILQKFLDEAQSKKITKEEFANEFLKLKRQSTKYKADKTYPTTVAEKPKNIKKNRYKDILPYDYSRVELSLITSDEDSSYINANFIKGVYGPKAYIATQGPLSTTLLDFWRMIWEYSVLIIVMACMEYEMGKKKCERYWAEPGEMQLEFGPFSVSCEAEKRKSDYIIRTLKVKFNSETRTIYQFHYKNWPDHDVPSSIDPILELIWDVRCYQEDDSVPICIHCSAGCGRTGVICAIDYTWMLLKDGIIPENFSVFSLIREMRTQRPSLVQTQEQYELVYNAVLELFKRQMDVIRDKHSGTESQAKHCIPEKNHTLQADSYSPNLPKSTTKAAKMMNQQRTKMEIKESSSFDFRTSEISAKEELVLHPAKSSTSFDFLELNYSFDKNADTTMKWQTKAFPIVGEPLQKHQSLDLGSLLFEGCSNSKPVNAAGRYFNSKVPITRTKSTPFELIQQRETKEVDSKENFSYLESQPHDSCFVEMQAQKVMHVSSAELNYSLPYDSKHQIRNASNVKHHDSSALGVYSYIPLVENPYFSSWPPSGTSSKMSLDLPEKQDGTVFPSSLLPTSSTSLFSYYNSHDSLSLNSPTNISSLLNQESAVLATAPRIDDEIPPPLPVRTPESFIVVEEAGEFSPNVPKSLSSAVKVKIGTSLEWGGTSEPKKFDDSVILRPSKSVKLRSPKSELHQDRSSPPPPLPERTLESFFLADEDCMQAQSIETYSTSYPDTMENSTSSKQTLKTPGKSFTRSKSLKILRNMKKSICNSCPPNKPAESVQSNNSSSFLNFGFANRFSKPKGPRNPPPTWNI

These molecules were tested against Tyrosine-protein phosphatase non-receptor type 22 (Homo sapiens) (UniProt Q9Y2R2) (assay: PTPN22 lymphoid phosphatase activity blockers – biochemical, fluorescence intensity, uHTS (AID 1779;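 further: plate controls were vehicle with enzyme for no effect and no enzyme for full effect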)). Settings: recombinant LYP phosphatase, at 11.5 µM, active compounds read high.
With `CN(C)C1(CNC(=O)c2cccc(C#N)c2)CCCCC1` the inhibition was inactive: -6.5%.
`c1ccc(CN2CCC(Nc3ccccc3)CC2)cc1` was tested, and the inhibition was inactive: -7.8%.
`CCCN1CCC(Nc2cc(OC)cc(OC)c2)CC1` was tested, and the inhibition was inactive: -5%.
`N#Cc1ccc(C(=O)NCC2(N3CCCCC3)CCCCC2)cc1` was tested, and the inhibition was inactive: -35.3%.
In the case of `CC(C)(C)OC(=O)N1CCC(N(C(=O)c2ccccc2)c2ccc(Cl)cc2)CC1`, the inhibition is reported as inactive: -6.2%.
In the case of `CCOC(=O)N1CCC(Nc2ccc(C)cc2)CC1`, the inhibition is reported as inactive: -7.9%.
For `N/C(=N\O)c1c(N)no[n+]1[O-]`, the inhibition was inactive: -0.8%.
In the case of `O=C(OC1CN2CCC1CC2)C1c2ccccc2C=Cc2ccccc21` (centres undefined), the inhibition is reported as inactive: -1.7%.
With `COc1ccc(C(=O)NCC2(N3CCOCC3)CCCCC2)cc1OC` the inhibition was inactive: -4.1%.
In the case of `COc1cccc(C(=O)N(c2cc(C)cc(C)c2)C2CCN(C(=O)OC(C)(C)C)CC2)c1`, the inhibition is reported as inactive: 12%.
With `COc1cc(OC)cc(C(=O)NCC2(N3CCOCC3)CCCCC2)c1` the inhibition was inactive: -5.5%.
For `CCC(CO)(C(=O)OC1CN2CCC1CC2)c1ccccc1` (centres undefined), the inhibition was inactive: -9.2%.
In the case of `CN1CCC(Nc2ccc(Cl)cc2)CC1`, the inhibition is reported as inactive: -10.4%.
In the case of `CCCOc1ccc(C)cc1CN(CCCl)CCCl`, the inhibition is reported as inactive: -9%.
With `CCOc1ncccc1C(=O)NCC1(N2CCOCC2)CCCCC1` the inhibition was inactive: -3.3%.
With `CN1CCC(Nc2ccc(F)c(Cl)c2)CC1` the inhibition was inactive: -0.8%.
In the case of `CC(C)(C)OC(=O)N1CCC(Nc2ccccc2)CC1`, the inhibition is reported as inactive: -1.4%.
With `O=C(O)C1(Nc2ccccc2)CCN(Cc2ccccc2)CC1` the inhibition was inactive: -10.9%.
In the case of `CCCOc1ccc(C(=O)NCC2(N(C)C)CCCCC2)cc1`, the inhibition is reported as inactive: -4.4%.
`CCN1CCC(Nc2cccc(F)c2)CC1` was tested, and the inhibition was inactive: -6.2%.
In the case of `CN(C)c1ccc(C(=O)NCC2(N3CCCCC3)CCCCC2)cc1`, the inhibition is reported as inactive: 1.3%.
`COc1cc(OC)cc(C(=O)NCC2(N3CCCCC3)CCCCC2)c1` was tested, and the inhibition was inactive: -4.3%.
In the case of `Fc1ccccc1NC1CCN(Cc2ccccc2)CC1`, the inhibition is reported as inactive: -6.4%.
In the case of `CCOC(=O)N1CCC(Nc2cccc(C)c2)CC1`, the inhibition is reported as inactive: -6.9%.
For `COc1cc(C(=O)NCC2(N(C)C)CCCCC2)ccc1OC(F)F`, the inhibition was inactive: -6.4%.
For `Cc1ccc(OCC(C)C)c(CN(CCCl)CCCl)c1`, the inhibition was inactive: -10.9%.
`CCOc1ccc(C)cc1CN(CCCl)CCCl` was tested, and the inhibition was inactive: -5.7%.
With `O=C(NCC1(N2CCCCC2)CCCCC1)c1ccc(F)cc1` the inhibition was inactive: -9.9%.
With `CCOC(=O)N1CCC(Nc2ccc(F)cc2)CC1` the inhibition was inactive: -9.7%.
`COc1ccc(NC2CCN(CCc3ccccc3)CC2)c(OC)c1` was tested, and the inhibition was inactive: -5.6%.
`Cc1cc(C)cc(N(C(=O)c2ccccc2)C2CCN(C(=O)OC(C)(C)C)CC2)c1` was tested, and the inhibition was inactive: -5.8%.
`O=C(NCC1(N2CCOCC2)CCCCC1)c1cc2ccccc2o1` was tested, and the inhibition was inactive: -10.4%.
`N#CC1(Nc2ccccc2)CCN(Cc2ccccc2)CC1` was tested, and the inhibition was inactive: -2%.
In the case of `O=C(OC1CN2CCC1CC2)C1c2ccccc2Oc2ccccc21` (centres undefined), the inhibition is reported as inactive: -5.3%.
`CCOC(=O)N1CCC(Nc2ccc(OC)cc2)CC1` was tested, and the inhibition was inactive: -4.2%.
For `COc1ccc(C(=O)NCC2(N3CCCCC3)CCCCC2)cc1`, the inhibition was inactive: -7.8%.
`COc1ccc(C(=O)NCC2(N3CCCCC3)CCCCC2)c(OC)c1OC` was tested, and the inhibition was inactive: 1.7%.
In the case of `CC(C)(C)OC(=O)N1CCC(N(C(=O)c2ccccc2)c2ccc(F)cc2)CC1`, the inhibition is reported as inactive: -1.9%.
For `O=C(NCC1(N2CCCCC2)CCCCC1)c1ccc(=O)[nH]c1`, the inhibition was inactive: -13.4%.
`CSc1ccccc1C(=O)NCC1(N2CCCCC2)CCCCC1` was tested, and the inhibition was inactive: -11.3%.
In the case of `CCCOc1ccc(C(=O)NCC2(N(C)C)CCCCC2)cc1OC`, the inhibition is reported as inactive: -8.4%.
In the case of `CC(C)c1ccc(NC2CCN(C(=O)OC(C)(C)C)CC2)cc1`, the inhibition is reported as inactive: 8.1%.
For `COc1ccc(CN(CCCl)CCCl)cc1Cl`, the inhibition was inactive: -8.6%.
With `CN(C)c1cccc(C(=O)NCC2(N3CCCCC3)CCCCC2)c1` the inhibition was inactive: -16%.
For `COc1cc(OC)c(C(=O)NCC2(N(C)C)CCCCC2)cc1OC`, the inhibition was inactive: -9.1%.
`O=C(NCC1(N2CCCCC2)CCCCC1)c1cccc(C(F)(F)F)c1` was tested, and the inhibition was inactive: -12.2%.
With `O=C(NCC1(N2CCOCC2)CCCCC1)c1cc(=O)[nH]c2ccccc12` the inhibition was inactive: -5.4%.
In the case of `COc1cc(C(=O)NCC2(N3CCCCC3)CCCCC2)ccc1OC(F)F`, the inhibition is reported as inactive: -7.5%.
With `COc1ccc(NC2CCN(C(=O)OC(C)(C)C)CC2)cc1` the inhibition was inactive: 0.4%.
`CN1CCN(CCOC(=O)C(O)(c2ccccc2)c2ccccc2)CC1` was tested, and the inhibition was inactive: -6.8%.
`O=C(NCC1(N2CCCCC2)CCCCC1)c1ccc(OC(F)F)cc1` was tested, and the inhibition was inactive: -5.3%.
In the case of `CCN1CCC(Nc2ccc(Cl)cc2)CC1`, the inhibition is reported as inactive: -6.5%.
`N#CC1(Nc2ccccc2)CCN(CCc2ccccc2)CC1` was tested, and the inhibition was inactive: -4.1%.
In the case of `O=C(NCC1(N2CCCCC2)CCCCC1)c1cccc([N+](=O)[O-])c1`, the inhibition is reported as inactive: -4.5%.
